Data published in patent US10077273B2, “SHMT inhibitors” (The Trustees of Princeton University, priority 2016, dated 2018).

Assay: Liver microsome assay (metabolic stability)
Format: in vitro ADME
Settings: pooled male mouse liver microsomes, 2 μM
Description: Male CD-1 mouse liver microsomes were obtained from commercial sources (Corning #452701). The following master solution was prepared before compound addition:
Two separate experiments were performed as follows: a) With Cofactors (NADPH and UDPGA): 40 μL of 10 mM NADPH and 40 μL of 20 mM UDPGA were added to the incubations. The final concentrations of microsomes, NADPH and UDPGA were 0.5 mg/mL, 1 mM and 2 mM, respectively. b) Without Cofactors (NADPH and UDPGA): 10 μL of 20 mg/mL liver microsomes and 80 μL of ultra-pure water were added to the incubations. The final concentration of microsomes was 0.5 mg/mL. The mixture was pre-warmed at 37° C. for 5 minutes.
The reaction was started with the addition of 4 μL of 200 μM control compound or test compound solution. Verapamil was used as positive control in this study. The final concentration of test compound or control compound was 2 μM. The incubation solution was incubated in water bath at 37° C. Aliquots of 50 μL were taken from the reaction solution at 0.5, 5, 15, 30, 45 and 60 minutes. The reaction was stopped by the addition of 5 volumes of cold acetonitrile with IS (100 nM alprazolam, 200 nM caffeine and 100 nM tolbutamide). Samples were centrifuged at 3,220 g for 40 minutes. […] The in vitro half-life (in vitro t1/2) was determined from the slope value of the LC-MS signal of the test compound.

CLint (replicate 1) (replicate 1): 91.87 μL/min/mg protein
CLint (replicate 2) (replicate 2): 94.28 μL/min/mg protein
SMILES: Cc1n[nH]c2c1C(c1cc(CO)cc(-c3cccc(CC(N)=O)c3)c1)(C(C)C)C(C#N)=C(N)O2 (centres unmarked) [HK-X3]
